# AlphaSeq binding of Ab-14 heavy chain variants to a spike HR2 peptide

From the AlphaSeq antibody data of Engelhart et al. 2022 (doi:10.1038/s41597-022-01779-4), copy in the FLAb collection.

The target is the same throughout: PDVDLGDISGINAS, from the HR2 region of SARS-CoV-2 spike.

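Phage display of a naive human antibody library on the peptide gave the parent. Library AAYL49 holds single substitutions and randomly drawn double and triple substitutions in the CDRs. The assay is AlphaSeq: two haploid yeast populations carry antibody and antigen on their surface. Pairs that bind mate more often; barcode pairs of the diploids are counted by sequencing. A regression on co-assayed BCL2-family reference pairs converts the normalised counts of each replicate to an apparent Kd. The assay was run in three technical replicates.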

Ab-14 is the parent antibody, in scFv form: VH, then three GGGGS repeats, then VL. The light chain is unchanged in all variants.
VH: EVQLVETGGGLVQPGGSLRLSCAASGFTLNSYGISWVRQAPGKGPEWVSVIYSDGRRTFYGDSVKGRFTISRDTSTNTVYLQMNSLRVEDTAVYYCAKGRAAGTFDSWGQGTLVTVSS
VL: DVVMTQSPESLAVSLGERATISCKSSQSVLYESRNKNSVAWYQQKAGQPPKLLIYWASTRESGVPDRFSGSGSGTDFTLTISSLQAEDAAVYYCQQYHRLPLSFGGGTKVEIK

Substitutions are numbered in sequence along the VH above, starting at 1 (not Kabat).
Affinities are written as log10 Kd with Kd in nM; a lower number is a better binder.
Replicates are averaged; those with no signal do not enter the mean.
"n.d." means that the variant was in the library but no mating with the target was seen in that replicate; the authors take this as a sign of poor binding, and no number exists.

| changes | log10 Kd, replicates | log10 Kd (nM), mean | empty controls |
|---|---|---|---|
| G33V I34E S35W | n.d. / n.d. / n.d. | n.d. | 0 of 9 |
| Y32G T58A T104A | n.d. / n.d. / n.d. | n.d. | 2 of 9 (3.88) |
| Y32M K65L A102T | 2.72 / 2.75 / 2.62 | 2.70 | 5 of 9 (4.13) |
| F27S V50S K65F | n.d. / n.d. / n.d. | n.d. | 4 of 9 (4.14) |
| F27C Y60S G103Q | n.d. / 3.07 / n.d. | 3.07 | 0 of 9 |
| Y32F Y52I V64R | n.d. / n.d. / n.d. | n.d. | 0 of 9 |
| S31V G33Y S53N | n.d. / n.d. / n.d. | n.d. | 0 of 9 |
| I51G G61L A101L | 0.68 / 0.87 / 0.77 | 0.78 | 1 of 9 (4.35) |
| G33N R56M G61I | 0.82 / 0.80 / 1.09 | 0.90 | 1 of 9 (4.57) |
| G61F S63D A102W | n.d. / 4.04 / n.d. | 4.04 | 2 of 9 (3.91) |
| T28F T58N S107N | n.d. / 3.19 / n.d. | 3.19 | 0 of 9 |
| F27L S31T G99P | n.d. / n.d. / n.d. | n.d. | 1 of 9 (3.36) |
| T28A N30H Y60R | n.d. / n.d. / n.d. | n.d. | 0 of 9 |
| N30F V50R T104Q | n.d. / n.d. / 5.67 | 5.67 | 0 of 9 |
| L29D I34L T58Y | n.d. / n.d. / n.d. | n.d. | 0 of 9 |
| D54Q F59H G103C | n.d. / n.d. / n.d. | n.d. | 0 of 9 |
| G61Q D62L K65Y | n.d. / 3.97 / n.d. | 3.97 | 6 of 9 (4.17) |
| G26K G33R D62H | n.d. / n.d. / n.d. | n.d. | 0 of 9 |
| D54G Y60W S63A | n.d. / 4.10 / 4.95 | 4.53 | 3 of 9 (4.09) |
| S63P K65Q | 1.31 / 1.59 / 1.70 | 1.53 | 0 of 9 |
| G26R D54A S107V | n.d. / n.d. / n.d. | n.d. | 0 of 9 |
| S31N K65I | 1.56 / 1.51 / 1.44 | 1.51 | 0 of 9 |
| F27T S31G G103K | n.d. / 3.69 / n.d. | 3.69 | 1 of 9 (2.81) |
| G26V S53F K65P | n.d. / n.d. / n.d. | n.d. | 0 of 9 |
| T28P D54T | 4.84 / n.d. / 3.69 | 4.26 | 1 of 9 (3.58) |
| F27Y R56N S63M | 2.34 / 3.15 / 4.21 | 3.24 | 0 of 9 |
| Y52F K65E G103T | n.d. / n.d. / n.d. | n.d. | 0 of 9 |
| G33M S35P G99D | 5.28 / 3.32 / n.d. | 4.30 | 0 of 9 |
| T28V F105W D106F | n.d. / n.d. / n.d. | n.d. | 0 of 9 |
| T28L L29Y R57V | n.d. / 4.33 / n.d. | 4.33 | 2 of 9 (3.79) |
| G33T S35T D106P | n.d. / 4.75 / n.d. | 4.75 | 1 of 9 (5.14) |
| D54R G103P F105S | n.d. / n.d. / n.d. | n.d. | 0 of 9 |
| S31T T58S T104H | 2.74 / n.d. / n.d. | 2.74 | 0 of 9 |
| F59R D62E D106S | n.d. / 2.73 / 2.63 | 2.68 | 4 of 9 (3.88) |
| F27K D54R G99D | n.d. / n.d. / 4.85 | 4.85 | 0 of 9 |
| V50G V64F A102I | n.d. / n.d. / n.d. | n.d. | 0 of 9 |
| I34A R100K T104V | n.d. / n.d. / 5.29 | 5.29 | 1 of 9 (4.35) |

For reference, 5 entries of the list once more:

| changes | log10 Kd, replicates | log10 Kd (nM), mean | empty controls |
|---|---|---|---|
| S63P K65Q | 1.31 / 1.59 / 1.70 | 1.53 | 0 of 9 |
| T28F T58N S107N | n.d. / 3.19 / n.d. | 3.19 | 0 of 9 |
| F59R D62E D106S | n.d. / 2.73 / 2.63 | 2.68 | 4 of 9 (3.88) |
| Y32G T58A T104A | n.d. / n.d. / n.d. | n.d. | 2 of 9 (3.88) |
| F27K D54R G99D | n.d. / n.d. / 4.85 | 4.85 | 0 of 9 |

For reference, the parent read 0.65 as the reference entry and 4.11 (one replicate of three) as a member of this library.
Three control strains display no target. For library AAYL49, 15% of the pairings with them gave a signal, with a median of 4.06 and one signal in twenty below 2.83, so weak values seen in few replicates may be background. Also given: how often the same scFv was detected with the empty control strains, with their mean in brackets.